Laboratory results reported in patent US20250135045A1, “FAP-ALPHA SPECIFIC TUMOR DIAGNOSTIC IMAGING AGENT” (JIAXING PHARBERS GENESIS PHARMACEUTICAL TECHNOLOGY CO., LTD., priority 2022, published 2025).

Tested on: lung tumor
Conditions: human, in vivo

## ^18F-FDG
  SUVmax: 7.0
